Experimental data reported in ChEMBL document CHEMBL6087398, “Natural phenol carbamates: Selective BuChE/FAAH dual inhibitors show neuroprotection in an Alzheimer's disease mouse model” (Eur J Med Chem, 2025).

Chains of the proteins cited; added tags and fusions are not shown.
UniProt P06276, whole entry: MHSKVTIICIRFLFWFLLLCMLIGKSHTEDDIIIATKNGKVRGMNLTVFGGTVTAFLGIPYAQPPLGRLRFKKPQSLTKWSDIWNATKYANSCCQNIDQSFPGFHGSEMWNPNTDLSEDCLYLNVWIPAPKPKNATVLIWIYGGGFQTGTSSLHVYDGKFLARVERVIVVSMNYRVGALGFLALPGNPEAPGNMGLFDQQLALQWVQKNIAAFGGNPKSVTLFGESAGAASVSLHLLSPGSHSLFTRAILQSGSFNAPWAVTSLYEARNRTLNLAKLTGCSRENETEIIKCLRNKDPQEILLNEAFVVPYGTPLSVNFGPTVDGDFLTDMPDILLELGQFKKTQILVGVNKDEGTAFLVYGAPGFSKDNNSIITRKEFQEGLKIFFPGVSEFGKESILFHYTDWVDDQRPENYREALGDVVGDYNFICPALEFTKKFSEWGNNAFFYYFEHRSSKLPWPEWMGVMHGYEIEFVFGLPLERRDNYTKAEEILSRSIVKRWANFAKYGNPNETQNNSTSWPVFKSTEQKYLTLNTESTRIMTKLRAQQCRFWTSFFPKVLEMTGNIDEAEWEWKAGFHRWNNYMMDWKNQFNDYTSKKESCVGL

Assays:
Cholinesterase [1] = molecular target: T1, Cholinesterase (Homo sapiens, UniProt P06276); experiment: Binding affinity to human BuChE (unknown origin) assessed as overall carbamolyation rate at 0.01 to 40 nM incubated for 60 mins
Cholinesterase [2] = molecular target: T1, Cholinesterase; experiment: Inhibition of human BuChE using butyrylthiocholine iodide as substrate incubated for 5 mins
Cholinesterase [3] = molecular target: T1, Cholinesterase; experiment: Binding affinity to human BuChE (unknown origin) assessed as equilibrium dissociation constant at 0.01 to 40 nM incubated for 60 mins

CCN(C)C(=O)Oc1cccc([C@H](C)N(C)C)c1 [RIVASTIGMINE] was tested, and the Ki (Cholinesterase [1]) was 5.65 10^-3/uM/min, the IC50 (Cholinesterase [2]) was 4.25 µM and the Kd (Cholinesterase [3]) was 3.68 µM.
